Results taken from patent US20100105730A1 (H. Lundbeck A/S, priority 2007, published 2010).

By UniProt entry, the sequences of proteins in these tests, tags left out. Residues count along the entry.
UniProt P35563, 24-483: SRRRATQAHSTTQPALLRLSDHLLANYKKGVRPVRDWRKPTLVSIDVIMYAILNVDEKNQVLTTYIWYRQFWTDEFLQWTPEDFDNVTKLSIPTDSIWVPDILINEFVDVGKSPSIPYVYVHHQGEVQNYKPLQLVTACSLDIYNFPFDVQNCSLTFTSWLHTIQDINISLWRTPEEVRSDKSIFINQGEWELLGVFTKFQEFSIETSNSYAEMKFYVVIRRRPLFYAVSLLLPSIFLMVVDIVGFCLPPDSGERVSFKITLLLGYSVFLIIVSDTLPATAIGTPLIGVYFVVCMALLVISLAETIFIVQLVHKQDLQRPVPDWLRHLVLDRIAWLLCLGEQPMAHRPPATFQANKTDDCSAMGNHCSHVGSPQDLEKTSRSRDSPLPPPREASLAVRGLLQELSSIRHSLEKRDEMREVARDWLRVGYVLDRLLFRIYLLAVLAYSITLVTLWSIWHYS

Target: rat-homomeric 5-HT3A receptors (Rattus norvegicus, UniProt P35563)
Test: cell-based
Procedure: The experiments were carried out as follows. […] Oocytes avoid of the follicle layer were selected and incubated for 24 hours in Modified Barth's Saline buffer [88 mM NaCl, 1 mM KCl, 15 mM HEPES, 2.4 mM NaHCO3, 0.41 mM CaCl2, 0.82 mM MgSO4, 0.3 mM Ca(NO3)2] supplemented with 2 mM sodium pyruvate, 0.1 U/l penicillin and 0.1 μg/l streptomycin. Stage […] oocytes were identified and injected with 12-48 nl of nuclease free water containing 14-50 pg of cRNA coding for human 5-HT3A receptors receptors and incubated at 18° C. until they were used for electrophysiological recordings (1-7 days after injection). […] Cells were impaled with agar plugged 0.5-1 MΩ electrodes containing 3 M KCl and voltage clamped at −90 mV by a GeneClamp 500B amplifier. The oocytes were continuously perfused with Ringer buffer and the drugs were applied in the perfusate.

## NCCc1c[nH]c2ccc(O)cc12 [5-HT, Serotonin]
  EC50: 3.3 µM
